Source: the OPERA property sets (Mansouri et al. 2018)

Q: With `CC(C)O[PH](=O)OC(C)C` as the compound, how does the logP read?
A: 0.45
